The record followed here is BindingDB's records for US10144715, “Piperazine derivatives as liver X receptor modulators” (2018).

By UniProt entry, the sequences of proteins in these tests, tags left out.
UniProt P55055, whole entry, looked up: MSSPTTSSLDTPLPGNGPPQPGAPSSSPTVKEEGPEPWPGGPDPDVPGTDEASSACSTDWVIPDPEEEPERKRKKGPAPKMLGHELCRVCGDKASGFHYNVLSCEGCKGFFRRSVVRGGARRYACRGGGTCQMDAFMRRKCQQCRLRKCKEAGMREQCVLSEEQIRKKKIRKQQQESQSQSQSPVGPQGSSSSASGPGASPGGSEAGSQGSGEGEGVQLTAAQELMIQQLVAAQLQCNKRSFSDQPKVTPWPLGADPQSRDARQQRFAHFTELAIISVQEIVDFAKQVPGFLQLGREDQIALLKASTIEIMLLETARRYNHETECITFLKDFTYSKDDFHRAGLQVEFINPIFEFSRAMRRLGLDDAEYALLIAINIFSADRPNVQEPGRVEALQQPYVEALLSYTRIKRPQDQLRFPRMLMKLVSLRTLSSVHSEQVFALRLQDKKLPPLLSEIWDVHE

The experiment addresses Oxysterols receptor LXR-beta (Homo sapiens, UniProt P55055). Kind of experiment: LXR alpha/beta Radioligand Binding Assay.

Broadly, the Ki is the equilibrium dissociation constant of an inhibitor or competing ligand from its target.

In turn, `CC(C)[C@@H]1CN(c2ccc(F)c(S(C)(=O)=O)c2)CCN1C(=O)OCC(F)(F)F` had a Ki of 290 nM.
